The values that follow come from US20110230473A1, “Methods and Compositions for Treating Status Epilepticus and Seizures Causing Status Epilepticus” (published 2011).

Protein sequences, listed by entry. Tags and fused reporters are not part of them. Lines headed by an entry give the natural chain unless they say otherwise; changes in a name come on top.
UniProt P37136: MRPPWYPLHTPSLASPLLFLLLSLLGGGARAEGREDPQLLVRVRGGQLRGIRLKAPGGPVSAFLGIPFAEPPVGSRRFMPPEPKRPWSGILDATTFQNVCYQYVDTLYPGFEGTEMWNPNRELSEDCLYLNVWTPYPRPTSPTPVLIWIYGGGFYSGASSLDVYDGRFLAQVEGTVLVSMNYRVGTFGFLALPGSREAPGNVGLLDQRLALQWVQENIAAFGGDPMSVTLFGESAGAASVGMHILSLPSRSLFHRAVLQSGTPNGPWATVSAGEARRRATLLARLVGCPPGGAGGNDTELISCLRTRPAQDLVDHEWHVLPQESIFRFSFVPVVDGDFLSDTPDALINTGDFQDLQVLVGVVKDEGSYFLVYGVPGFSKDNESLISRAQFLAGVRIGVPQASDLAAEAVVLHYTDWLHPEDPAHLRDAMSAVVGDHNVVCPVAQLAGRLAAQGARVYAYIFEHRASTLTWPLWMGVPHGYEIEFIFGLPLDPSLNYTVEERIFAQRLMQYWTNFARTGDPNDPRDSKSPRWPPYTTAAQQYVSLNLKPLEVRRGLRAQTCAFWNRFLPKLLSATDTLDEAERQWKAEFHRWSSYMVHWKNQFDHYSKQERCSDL

For series [1], the system named is NMDA toxicity in cell culture.
In series [2] the test system is DFP toxicity in cell culture.
Series [3] concerns seizures induced by pilocarpine. The settings on record: pretreatment, rat seizure models; cited from earlier work.
The test system of series [4] is DFP induced neuropathology. Put plainly: Guinea pig brain neuropathology (H&E, fluoro-jade) after DFP. The settings on record: DFP then oxime, 24 hr post-exposure.
Series [5] has as its target AChE (Cavia porcellus, UniProt D3YE96). Put plainly: AChE activity assay, guinea pig blood, diaphragm and brain after DFP.
For series [6], the system named is paraoxon poisoning. The following applies: Boskovic et al. 1980; cited from earlier work.
For series [7], the system named is DFP induced seizures. Put plainly: DFP guinea pig radiotelemetry model (standard military exposure paradigm).
For series [8], the system named is brain AChE. The settings on record: Rump et al. 1978; cited from earlier work.
A short description of series [9]: Pro-2-PAM conversion (biotransformation to 2-PAM).
Series [10] concerns behavior effects of DFP. The following applies: Kenley et al. 1982; cited from earlier work.
A short description of series [11]: Solubility and solution stability. The settings on record: for solubility in acidic solution: slightly acidic solution, e.g. 0.9% sodium chloride, pH 5.
Series [12] relates to DFP induced SE causing seizure. Put plainly: DFP rat radiotelemetry model.
In series [13] the test system is NMDA-induced seizures. Put plainly: NMDA SE rat model (radiotelemetry).
Series [14] deals with T1, AChE (Rattus norvegicus, UniProt P37136). Description: Blood and brain AChE activity of NMDA-treated rats. The following applies: pre- and post-exposure treatment.
Series [15] has as its target T1, AChE. Put plainly: Blood AChE activity of DFP-exposed rats. The settings on record: pre- and post-exposure treatment.
Series [16] relates to AChE. The following applies: cited from earlier work.

With [+]dimethylhuperzine, the “protective efficacy against NMDA toxicity” value in series [1] is reported as “protective efficacy”. Moreover, in series [2], the “protective efficacy against DFP toxicity” value is recorded as “protective efficacy”.

On to “9-amino-13-ethylidene-11-methyl-4-azatricyclo[7.3.1.0]trideca-3(8),6,11-trien-5-one [−HupA]”, for which the “seizures induced by pilocarpine” value in series [3] was “does not”.

For “N-methyl-1,6-dihydropyridine-2-carbaldoxime”, in [4], the “hippocampus pyramidal layer, fluoro-jade stain, 40×” value is recorded as “lacked dead cells” and the “piriform cortex neurons, H&E stain, 40×” value is given as “lack the signs of neuronal necrosis or degeneration”. In series [5] (2-PAM vs Pro-2-PAM treated animals, 1.5 hr post treatment), the “AChE activities in blood and diaphragm” value is listed as “similar”. In addition, the “average increase in frontal cortex AChE activity vs DFP only treated animals” value in series [5] (24 hr, therapy between 1 and 40 min post-DFP exposure, p≦0.05) is above 2 fold. For the same substance, the “brain AChE reactivation” value in series [5] (administered i.m. after OP exposure) is “resulted in brain AChE reactivation”. The “time post-OP exposure at which treatment still reactivated DFP-inhibited brain AChE” value in [5] (frontal cortex, 24 hr) was “up to 40 min”. Further, in series [5] (six of eight brain regions, 1.5 hr after DFP exposure, p≦0.05), the “brain regional AChE activity, Pro-2-PAM vs 2-PAM treated animals” value is given as “at least 2 fold”. In series [6], the “effectiveness against paraoxon poisoning” value is reported as “less effective than 2-PAM”. Further, the “DFP induced hypothermia, bradycardia and decreased activity” value in series [7] (24 hr recording) is “abrogated DFP induced hypothermia and bradycardia and restored activity”. Moreover, the “seizures, SE causing seizures and SE in DFP-exposed animals” value in series [7] (guinea pig, overall statement) was “significantly suppressed and then eliminated seizure activity”. For the same substance, in series [7] (oxime 13 mg/kg i.m. 1 min after DFP 8 mg/kg s.c., guinea pig), the “seizure activity (EEG, 24 hr)” value is on record as “prevented seizure activity”. Besides, the “seizure activity (EEG, 24 hr)” value in series [7] (oxime injected 15 min after DFP, guinea pig) is “abrogated seizure activity”. In addition, the “reactivation of brain AChE” value in series [8] was “reactivated brain AChE in amounts greater than 2-PAM”. In [9] (NAD/P intracellular conversion), the “biotransformation to 2-PAM” value is on record as “incomplete after 30 min”. Besides, the “biotransformation to 2-PAM” value in [9] (physiological doses of riboflavin) is reported as “proceeds to completion within minutes”. Further, the “reversal of the behavior effects of DFP” value in series [10] is listed as “do not reverse the behavior effects of DFP”. In [11], the stability in solution result was “relatively unstable in solution for an extended period” and the “solubility in acidic solution” value is “readily dissolved”. Moreover, the water solubility entry in series [11] (stored powder) is recorded as “readily water soluble powder”.

For “9-amino-13-ethylidene-11-methyl-4-azatricyclo[7.3.1.0]trideca-3(8),6,11-trien-5-one [+HupA]”, the survival in series [12] (3 mg/kg 10 min after DFP 4 mg/kg s.c., n=6) is listed as 83%; in series [12] (3 mg/kg i.m. 1 min after DFP 4 mg/kg s.c., n=8), 87.5%; in [12] (3 mg/kg i.m. 5 min after DFP 4 mg/kg s.c., n=24), 96%; in [12] (3 mg/kg i.m. 30 min before DFP 4 mg/kg s.c., 24 hr, n=6), 100%. Moreover, the “body temperature, average after recovery” value in series [12] (1 min post-treatment) is 35 °C. For the same substance, the “time to progression to SE after DFP injection” value in series [12] (1 min post-treatment) was “about 48 min”. Further, the “time to signs of SE causing seizures after DFP injection” value in series [12] (1 min post-treatment) is on record as “about 36 min”. The physical activity entry in series [12] (1 min post-treatment, 2 hr after DFP) is “significantly decreased”; in series [12] (5 min post-treatment, after quiet period 3.5-9 hr), “resumed after 9 hr to normal levels”; in series [12] (10 min post-treatment, 4 hr after DFP), “drops significantly”; in [12] (30 min pre-treatment, 24 hr), “remained consistently active”; in [13] (post-NMDA exposure treatment with 3 mg/kg), “not affected”; in series [13] (pre-treatment with 3 mg/kg, then NMDA), “normal physical activity”. Also, the “heart rate (average)” value was found to be 425 bpm in [12] (1 min post-treatment, remainder of experiment); 450 bpm in series [12] (1 min post-treatment, within 3 hr of DFP, increased from 400 bpm); 400 bpm in series [12] (5 min post-treatment, remainder of experiment); 500 bpm in series [12] (5 min post-treatment, within 1 hr of DFP, increased from 450 bpm); 300 bpm in series [12] (10 min post-treatment, 2 hr later); 250 bpm in series [12] (10 min post-treatment, 8 hr later, remainder of experiment). For the same substance, the “heart rate (average)” value amounted to 500 bpm in series [12] (10 min post-treatment, within 1 hr of DFP, increased from 400 bpm) and 400 bpm in series [12] (30 min pre-treatment, within 3.5 hr of DFP injection, dropped from 500 bpm). The “body temperature after drop” value in [12] (1 min post-treatment, three hr after DFP, dropped from 37° C.) is 33 °C. Also, the figures for the “duration of strong seizure activity” value in [12] (5 min post-treatment) and in series [12] (10 min post-treatment) were 45 min and 180 min, respectively. The “time to strong seizure activity after DFP exposure” value in series [12] (5 min post-treatment) and in series [12] (10 min post-treatment) was “about 8 min” throughout. For the same substance, the “body temperature, low” value is 31 °C in series [12] (5 min post-treatment, 13 hr after DFP); 30.5 °C in series [12] (10 min post-treatment, 17.5 hr after DFP); 32 °C in series [12] (30 min pre-treatment, 3.5 hr after DFP). In addition, the “body temperature, peak” value in [12] (5 min post-treatment, end of 24 hr recording) worked out at 35 °C. The “body temperature, average” value in [12] (30 min pre-treatment, remainder of experiment) was 35 °C. Besides, the “protection against SE causing seizures and SE induced by NMDA” value in [13] (1, 2 and 3 mg/kg i.m. 30 min prior to 20 μg/kg NMDA i.c.v., rat) is “protected against SE causing seizures and SE”. The “survival of NMDA-administered animals” value in series [13] (+HupA treatment pre- and post-exposure to NMDA) was “increased survival”. Further, the body temperature entry is listed as “normal baseline body temperature” in series [13] (post-exposure treatment, 24 hr recording) and “remained within the normal temperature range” in series [13] (pre-treatment, 24 hr monitoring). Moreover, the heart rate in [13] (pre-treatment, then NMDA) is reported as 300-500 bpm. In addition, the cardiovascular toxicity entry in [13] (rat, in vivo) is recorded as “does not have any observable cardiovascular toxicity”. The “side-effects associated with NMDA ion-channel antagonists (behavior decrements)” value in [13] (rat, in vivo) is recorded as “devoid of the side-effects such as behavior decrements”. Moreover, the “seizures induced by pilocarpine” value in series [3] is listed as “prevents seizures”. In addition, the “blood and brain AChE activities vs rats receiving NMDA alone” value in series [14] is recorded as “no significant difference”. For the same substance, the “blood AChE activity vs rats which received no treatment” value in series [15] is “significant increase”. Also, the “solubility in acidic solution” value in [11] is on record as “soluble in acidic solution”. Moreover, in series [16], the “AChE binding activity, fold lower than −HupA” value was 100 to 1000 fold.
